Test results as given in ChEMBL document CHEMBL4024706 (Eur J Med Chem, 2017).

Amino acid sequences for entries named in this document (tags omitted). A change or cut given only in a name is not applied to a line headed by its entry.
UniProt Q06187: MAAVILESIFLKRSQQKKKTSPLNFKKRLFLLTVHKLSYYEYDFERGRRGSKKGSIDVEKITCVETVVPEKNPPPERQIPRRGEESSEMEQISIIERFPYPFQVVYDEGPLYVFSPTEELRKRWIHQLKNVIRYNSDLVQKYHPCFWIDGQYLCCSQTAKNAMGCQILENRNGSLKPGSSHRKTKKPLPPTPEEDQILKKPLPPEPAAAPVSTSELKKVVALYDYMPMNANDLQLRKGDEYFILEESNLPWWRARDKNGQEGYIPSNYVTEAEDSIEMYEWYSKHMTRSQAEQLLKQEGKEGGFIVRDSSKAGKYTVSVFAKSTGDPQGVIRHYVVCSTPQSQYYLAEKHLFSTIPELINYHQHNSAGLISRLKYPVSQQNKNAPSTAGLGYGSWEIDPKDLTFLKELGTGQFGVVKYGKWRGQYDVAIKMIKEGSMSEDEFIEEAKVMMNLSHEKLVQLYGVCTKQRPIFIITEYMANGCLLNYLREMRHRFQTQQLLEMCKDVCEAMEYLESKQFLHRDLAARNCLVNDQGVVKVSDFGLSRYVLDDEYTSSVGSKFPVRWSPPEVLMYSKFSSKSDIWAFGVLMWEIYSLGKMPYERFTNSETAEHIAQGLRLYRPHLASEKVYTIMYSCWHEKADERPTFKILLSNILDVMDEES

Tests used:
[1] = target: T1, Tyrosine-protein kinase BTK (Homo sapiens, UniProt Q06187); experiment: Reversible inhibition of full length recombinant human N-terminal His tagged […] expressed in baculovirus infected Sf9 insect cells using poly (Glu,Tyr)4:1 as substrate pretreated for 2 to 60 mins followed by substrate addition after 1 hr by ADP-Glo luminescence assay
[2] = target: T1, Tyrosine-protein kinase BTK; experiment: Inhibition of full length recombinant human N-terminal His tagged […] expressed in baculovirus infected Sf9 insect cells using poly (Glu,Tyr)4:1 as substrate pretreated for 60 mins followed by substrate addition after 1 hr by ADP-Glo luminescence assay

C=CC(=O)Nc1cccc(Nc2nc(Nc3ccc(OCCOC)cc3)ncc2F)c1 [SPEBRUTINIB]
Ki [1]: 20.7 nM | IC50 [2]: 9 nM
